# Reference: patent publication US10239843B2 (CANCER RESEARCH TECHNOLOGY LIMITED, priority 2014, dated 2019)
# Chains of the proteins cited; added tags and fusions are not shown.
# UniProt Q86W56, whole entry: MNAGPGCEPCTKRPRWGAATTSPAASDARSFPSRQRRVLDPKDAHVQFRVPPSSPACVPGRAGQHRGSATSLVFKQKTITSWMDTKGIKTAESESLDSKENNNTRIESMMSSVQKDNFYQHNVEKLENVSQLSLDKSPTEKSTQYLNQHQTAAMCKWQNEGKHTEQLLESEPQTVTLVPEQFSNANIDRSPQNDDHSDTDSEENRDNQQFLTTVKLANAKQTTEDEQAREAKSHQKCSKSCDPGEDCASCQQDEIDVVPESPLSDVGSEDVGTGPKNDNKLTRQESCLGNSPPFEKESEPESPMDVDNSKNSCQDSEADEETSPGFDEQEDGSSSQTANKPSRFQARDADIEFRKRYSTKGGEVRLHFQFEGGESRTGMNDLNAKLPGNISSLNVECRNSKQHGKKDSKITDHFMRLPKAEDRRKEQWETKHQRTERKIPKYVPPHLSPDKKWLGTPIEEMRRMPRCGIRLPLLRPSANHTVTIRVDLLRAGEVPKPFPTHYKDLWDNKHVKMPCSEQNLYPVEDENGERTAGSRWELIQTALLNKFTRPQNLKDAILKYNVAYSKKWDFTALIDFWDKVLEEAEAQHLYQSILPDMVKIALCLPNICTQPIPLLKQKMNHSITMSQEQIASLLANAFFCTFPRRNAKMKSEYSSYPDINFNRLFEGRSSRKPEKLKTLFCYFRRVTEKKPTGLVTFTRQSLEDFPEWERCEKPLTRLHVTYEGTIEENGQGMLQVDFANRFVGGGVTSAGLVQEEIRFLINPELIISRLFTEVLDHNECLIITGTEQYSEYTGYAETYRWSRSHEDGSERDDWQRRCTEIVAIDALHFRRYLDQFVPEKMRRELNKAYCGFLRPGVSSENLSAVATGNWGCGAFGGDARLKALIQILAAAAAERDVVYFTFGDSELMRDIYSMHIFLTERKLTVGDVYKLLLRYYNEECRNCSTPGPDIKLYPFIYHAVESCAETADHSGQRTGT
# UniProt P09874, whole entry: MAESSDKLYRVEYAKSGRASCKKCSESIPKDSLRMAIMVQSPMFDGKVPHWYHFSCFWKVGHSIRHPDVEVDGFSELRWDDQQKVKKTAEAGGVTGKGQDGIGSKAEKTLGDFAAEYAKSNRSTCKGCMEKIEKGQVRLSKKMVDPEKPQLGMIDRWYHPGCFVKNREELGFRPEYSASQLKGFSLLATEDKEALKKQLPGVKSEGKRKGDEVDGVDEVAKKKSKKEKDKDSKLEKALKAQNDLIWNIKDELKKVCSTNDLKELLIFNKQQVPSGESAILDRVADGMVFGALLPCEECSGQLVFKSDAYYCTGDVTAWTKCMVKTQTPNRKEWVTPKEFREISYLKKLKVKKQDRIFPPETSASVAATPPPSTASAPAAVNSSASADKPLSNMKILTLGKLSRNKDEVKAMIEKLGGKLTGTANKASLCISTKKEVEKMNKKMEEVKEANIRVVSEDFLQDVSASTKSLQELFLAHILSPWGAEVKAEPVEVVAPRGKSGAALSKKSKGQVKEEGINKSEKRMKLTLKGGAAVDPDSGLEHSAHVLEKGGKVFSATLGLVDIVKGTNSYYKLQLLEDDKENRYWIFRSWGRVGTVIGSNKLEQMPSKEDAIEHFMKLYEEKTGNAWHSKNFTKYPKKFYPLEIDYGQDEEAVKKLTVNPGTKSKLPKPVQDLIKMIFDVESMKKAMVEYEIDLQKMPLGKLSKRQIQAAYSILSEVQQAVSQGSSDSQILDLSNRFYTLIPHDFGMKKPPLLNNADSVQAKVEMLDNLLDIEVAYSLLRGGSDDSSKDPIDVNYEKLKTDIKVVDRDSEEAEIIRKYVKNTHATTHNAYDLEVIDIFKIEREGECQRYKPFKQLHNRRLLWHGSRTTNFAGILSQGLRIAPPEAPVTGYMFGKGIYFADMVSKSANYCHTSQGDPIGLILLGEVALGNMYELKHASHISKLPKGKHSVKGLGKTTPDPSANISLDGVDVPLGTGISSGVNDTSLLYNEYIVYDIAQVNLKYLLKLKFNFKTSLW
# UniProt Q9NX46, whole entry: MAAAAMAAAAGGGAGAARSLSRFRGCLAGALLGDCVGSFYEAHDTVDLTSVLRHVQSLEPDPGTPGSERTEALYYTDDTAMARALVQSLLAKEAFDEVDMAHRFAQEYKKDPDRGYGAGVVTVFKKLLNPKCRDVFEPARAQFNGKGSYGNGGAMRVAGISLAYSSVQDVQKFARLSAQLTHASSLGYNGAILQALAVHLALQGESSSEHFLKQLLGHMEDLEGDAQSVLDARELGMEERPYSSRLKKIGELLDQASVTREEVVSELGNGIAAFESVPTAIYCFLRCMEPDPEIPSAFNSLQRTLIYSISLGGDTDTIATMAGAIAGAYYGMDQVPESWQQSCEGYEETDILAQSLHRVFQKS
# Legend:
# PARG in HeLa cell line = assay: PARG cell assay (PAR chain immunofluorescence after MMS); assay type: cell-based; settings: read-out: PARG Cell IC50 Geomean
# Human Full Length PARG = Human Full Length PARG (Homo sapiens (Human), UniProt Q86W56); assay: PARG enzyme assay (TR-FRET); assay type: biochemical; settings: read-out: PARG Biochem IC50 Geomean
# [1] = molecular target: Human High specific Activity PARP1 (Homo sapiens (Human), UniProt P09874); assay: PARP1 in vitro selectivity assay (histone PARylation, luminescence); assay type: biochemical; settings: read-out: PARP1 Biochem IC50
# Human Full Length ARH3 = Human Full Length ARH3 (Homo sapiens (Human), UniProt Q9NX46); assay: ARH3 in vitro selectivity assay (TR-FRET); assay type: biochemical; settings: read-out: ARH3 Biochem IC50
IC50 [1] [µM],IC50 (Human Full Length ARH3) [µM],SMILES,IC50 (PARG in HeLa cell line) [µM],IC50 (Human Full Length PARG) [µM],"IC50 (PARG in HeLa cell line; HeLa cells, MMS 50 μg/mL) [µM]"
–,–,Cc1cc(Cn2c(=O)c3cc(S(=O)(=O)NC4(C)CC4)ccc3n(CCC(C)(C)O)c2=O)on1,0.597,0.245,–
–,–,Cc1nc(C)c(Cn2c(=O)n(Cc3cnn(C)c3)c(=O)c3cc(S(=O)(=O)NC4(C#N)CC4)ccc32)s1,–,0.011,0.236
–,–,Cc1ncc(Cn2c(=O)n(Cc3cnn(C)c3)c(=O)c3cc(S(=O)(=O)NC4(C#N)CC4)ccc32)s1,–,0.02,0.385
–,–,C#C[C@@H](C)n1c(=O)n(C)c(=O)c2cc(S(=O)(=O)NC3(C)CC3)ccc21,–,2.79,–
–,–,Cn1cc(Cn2c(=O)c3cc(S(=O)(=O)NC4(C)CC4)ccc3n(CC3CCC(=O)N3)c2=O)cn1 (centres unmarked),–,0.127,5.54
–,–,C#C[C@H](C)n1c(=O)n(C)c(=O)c2cc(S(=O)(=O)NC3(C)CC3)ccc21,–,3.68,–
> 150,> 150,CC(C)Oc1nc2ccc(S(=O)(=O)NC3(C)CC3)cc2c(=O)n1Cc1cnn(C)c1,–,0.237,0.132

# Read-outs that look alike come from different tables or passages of the source.
